The values that follow come from patent publication US12522610B2 (priority 2018, dated 2026).

Some compounds may have been tested in ways that are not shown here.

One data set in a line: Solubility of buprenorphine derivatives and salt forms in dissolution medium. The following applies: 55° C. water bath, 60 rpm, Table 3.
With Buprenorphine hexanoate, the Solubility – broadly, how much of the substance goes into solution per volume – came out at 670 µg/mL.
The same measure, in the same setting: the same measure for Buprenorphine stearate: 20 µg/mL; for Buprenorphine dodecanoate: 269 µg/mL.
Turning to Buprenorphine pivalate, the “Solubility” value was found to be 160 µg/mL.
Still for that read-out and setting: the same measure for Buprenorphine pentanoate: 498 µg/mL.

Still in this data set, the particulars now being: salt forms, 55° C. water bath, 60 rpm, Table 4.
Consider Buprenorphine acetate-pantoic acid salt, for which the “Solubility” value was 1546 µg/mL.
The same measure, in the same setting: the same measure for Buprenorphine acetate-maleic acid salt: 1481 µg/mL; for “Buprenorphine stearate-L-tartaric acid salt”: 3504 µg/mL.
